What was measured:
[1] = Hygroscopicity by dynamic water vapor sorption analysis (DVS); conditions: for additional water absorbed when relative humidity is increased from 50% to 95%: 50% to 95% relative humidity
[2] = Protocol: The mixture was vigorously agitated at room temperature for one minute. […] The suspension was filtered by centrifugal filtration and 1.50 mL of the aqueous solution was transferred into a tared glass vial (about 10 mL volume). […] The solubility was determined by gravimetric evaluation of the solid residue.

| kinetic solubility, amount of salt readily dissolved ([2]; room temperature, clear solution after a few seconds, expressed as salt) | kinetic solubility improved by a factor versus the known (metastable Form I) calcium salt ([2]; versus metastable Form I of the calcium salt) | water content at 50% relative humidity ([1]; 50% relative humidity) | Compound | additional water absorbed when relative humidity is increased from 50% to 95% [1] |
| --- | --- | --- | --- | --- |
| – | – | – | CN1c2c([nH]c(N)nc2=O)NC[C@@H]1CNc1ccc(C(=O)N[C@@H](CCC(=O)[O-])C(=O)[O-])cc1.[Ca+2] [reference compound] | more than 10% |
| more than 54 mg per mL water | about three | about 10% | CN1c2c(nc(N)[nH]c2=O)NC[C@@H]1CNc1ccc(C(=O)N[C@@H](CCC(=O)O)C(=O)O)cc1.OCCN1CCOCC1 | about 2% |
